Key:
[1] = test system: ERK1/ERK2; test: ERK1/ERK2 dual phosphorylation in HUVEC (western blot); type: cell-based, human; conditions: 15 min; TNF 100 U/ml, TNF70-80 10 μM
Method: The cells were lysed, and JNK activity was assayed using GST-jun (1-79) as a substrate. The data is presented as means+−sem of 3 experiments. […] The cells were lysed and the level of dual-phosphorylated ERK1/ERK2 was assessed by western blot analysis using the anti-ACTIVE ERK antibody (top panel). The blot was stripped and re-probed with an anti-ERK2 antibody (lower panel) to compare the level of ERK2 protein. The results are representative of 3 experiments, each conducted with cells from a different cord. […] The level of myelin basic protein phosphorylation was quantitated by an Instant Imager. Results are presented as the means+−sem of 3 experiments. Statistical analysis: significant difference between control and stimulated cells, *p<0.05.
Fresh human umbilical cords were obtained from consenting mothers according to the institution's guidelines on human ethics. […]
The cells were lysed in 200 μl of buffer A (20 mM HEPES, pH 7.4, 0.5% (v/v) Nonidet P-40, 100 mM NaCl, 1 mM EDTA, 2 mM Na3VO4, 2 mM dithiotbreitol, 1 mM phenylmethylsulfonyl fluoride, and 10 μg/ml leupeptin, aprotonin, pepstatin A, and benzamidine) for 2 h at 4° C. with constant mixing (20) After centrifugation (12,000 g×5 min), the supernatants were collected and the protein content of the lysates was determined by Lowry's method of protein determination. […]

[2] = test system: p38; test: p38 kinase activity in WEHI-164 cells; type: cell-based; conditions: 15 mins; TNF 1000 U/ml, TNF132-150 100 μg/ml
Method: The level of myelin basic protein phosphorylation was quantitated by an Instant Imager. A representative radiogram from the Instant Imager and pooled data (means±SEM of 3 experiments) are shown.
WEHI-164 cells were cultured in 28 cm^2 dishes to approx 80% confluence before the desired treatment. […] After washing twice with cold HBSS, cells were harvested by scraping and lysed in 400 μl of buffer A (20 mM HEPES, pH 7.4, 0.5% (v/v) Nonidet P-40, 100 mM NaCl, 1 mM EDTA, 2 mM Na3VO4, 2 mM dithiothreitol, 1 mM phenylmethylsulfonyl fluoride, and 10 μg/ml Sigma 104, leupeptin, aprotonin, pepstatin A, and benzamidine) for 2 h at 4° C. with constant mixing (Hii et al. (1998) J Biol Chem. 273(30):19277-82). After centrifugation (12,000 g×5 min), the supernatants were collected and the protein content of the lysates was determined by Lowry's method of protein determination. A solid phase assay using glutathione-S-transferase (GST)-conjugated-jun (1-79) was employed to assay JNK activity (Hii et al. (1998) J Biol Chem. 273(30):19277-82) GST-jun (1-79) was fractionated on 12% SDS polyacrylamide gels and the bands were detected and radioactivity determined using an Instant Imager (Packard Instruments, Canberra, Australia). […]

Substance: TNF: Human recombinant TNF produced by Genentech, Inc.
- dual phosphorylation of the ERKs in HUVEC [1]: stimulated the dual phosphorylation of the ERKs
- activity of p38 in WEHI-164 cells [2]: increased
